Values quoted from earlier work, collected in paper PMC12210912, “Pharmacologic properties and inhibitory activity of 6-azasteroids against Mycobacterium leprae in vivo and in vitro” (Microbiology Spectrum, 2025).

The chains behind the UniProt entries cited, without tags or fusion partners.
UniProt P10275, whole entry T878A: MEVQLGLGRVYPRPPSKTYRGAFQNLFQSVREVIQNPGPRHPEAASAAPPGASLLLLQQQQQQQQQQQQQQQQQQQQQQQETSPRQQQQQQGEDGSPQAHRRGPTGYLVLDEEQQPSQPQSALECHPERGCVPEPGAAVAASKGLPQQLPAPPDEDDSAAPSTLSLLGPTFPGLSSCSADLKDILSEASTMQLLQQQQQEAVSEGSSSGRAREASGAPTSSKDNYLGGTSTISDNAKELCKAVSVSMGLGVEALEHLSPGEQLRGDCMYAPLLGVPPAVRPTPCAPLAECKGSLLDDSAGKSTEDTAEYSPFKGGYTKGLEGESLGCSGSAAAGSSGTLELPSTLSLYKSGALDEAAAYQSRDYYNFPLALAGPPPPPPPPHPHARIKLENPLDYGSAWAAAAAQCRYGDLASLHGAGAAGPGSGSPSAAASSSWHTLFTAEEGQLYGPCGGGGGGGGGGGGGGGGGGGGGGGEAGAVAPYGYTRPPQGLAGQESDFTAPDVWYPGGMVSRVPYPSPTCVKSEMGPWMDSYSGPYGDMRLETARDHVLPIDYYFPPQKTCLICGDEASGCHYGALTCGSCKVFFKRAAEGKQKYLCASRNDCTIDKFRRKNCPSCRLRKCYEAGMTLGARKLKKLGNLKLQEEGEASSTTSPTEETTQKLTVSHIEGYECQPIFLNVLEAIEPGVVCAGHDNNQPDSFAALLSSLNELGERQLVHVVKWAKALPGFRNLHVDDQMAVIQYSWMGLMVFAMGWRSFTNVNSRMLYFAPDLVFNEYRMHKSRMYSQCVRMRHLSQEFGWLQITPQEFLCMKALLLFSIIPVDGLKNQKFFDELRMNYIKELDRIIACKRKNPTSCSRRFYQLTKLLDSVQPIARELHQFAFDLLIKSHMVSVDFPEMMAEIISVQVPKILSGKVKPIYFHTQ

Target: Androgen Receptor (Homo sapiens, UniProt P10275, T878A)
Settings: read-out: Kd of agonist radioligand, AR (human); LNCaP cells (cytosol); cited from earlier work

Substance: [^3H]methyltrienolone
- Kd: 10.8 nM
